# Laboratory results published in PubChem BioAssay AID540303 (National Center for Advancing Translational Sciences (NCATS), 2011).
# The list shows a part of the results, in another mix than the full data. Some tests of the compounds listed are not included; inactive here does not mean inactive elsewhere. Results filed as inconclusive are left out. Calls of active or inactive are those of the source. The call rests on the fitted dose curve; in most records, active means well fitted inhibition curve with a large enough effect; inconclusive means small, poorly fitted or top-dose-only effect; inactive means no such curve, though single readings can be large or run the other way; tested in mouse RAW 264.7 cells.
# Test: qHTS for Inhibitors of Cell Surface uPA Generation; further: nearly all actives have a fitted effect of over 55% in size
# Conditions: cell surface uPA generation assay; at 38.3 µM (top of the series)
# Text: The overall objective of this project is to perform a quantitative high throughput screen (qHTS) to identify novel compounds that inhibit the generation of cell surface urokinase activity. The urokinase plasminogen activator (uPA) is one of the two primary endogenous systems that mediate plasminogen activation into plasmin. Members of this system, including uPA and its receptor (uPAR), are overexpressed in several malignant tumors. This system plays a major role in adhesion, migration, invasion and metastasis of cancer cells. Small molecule inhibitors of the uPA system will serve as probes to understand the molecular mechanisms of the uPA cascade and better understanding the microenvironmental circumstances that facilitate the activation of plasminogen by uPA, and finally may provide novel candidate agents for anticancer drug therapy.
# […] […] Upon inhibition of the uPA activation cascade, the subsequent cell surface uPA activity-dependent translocation of LF into the cytoplasm is inhibited. ATP-Lite is used to measure intracellular ATP concentrations, which remain increased if LF entry into the cytoplasm is inhibited. This validation assay was performed using a small set of validation compounds.
# NIH Chemical Genomics Center [NCGC]
# NIH Molecular Libraries Probe Centers Network [MLPCN]
# Assay Submitter (PI): Thomas Bugge, National Institute of Dental and Craniofacial Research, NIH
# Cultured RAW 264.7 were dispensed into 1536-well clear bottom, white walled tissue culture plates at a density of 4000 cells/well and were incubated overnight (12-16 h) at 37 C in a 5% CO2 incubator. Serially diluted compounds in 23 nl DMSO were added to cells. […] Compound and reagent-treated plates were incubated for 24 h at 37 C in a 5% CO2 incubator. Perkin Elmer ATPlitetrade mark 1 step (3 ul) was then added to each well. Luminescence was detected using a Perkin Elmer ViewLuxtrade mark plate reader.
# 1.Dispensing RAW 264.7 cells into 1536-well, white walled tissue culture plates at a density of 4000 cells/well (4 uL).
# 2.Incubation at 37 C in a 5% CO2 incubator overnight.
# 3.Serially diluting compounds (1:5 serial dilution; 0.0024 uM to […] final concentration) in 23 nl DMSO.
# 5.Incubating the compound and reagent-treated plates for 24 hours at 37 C in a 5% CO2 incubator.
# 6.Adding ATP-Lite (3 ul).
# 7.Reading plates by ViewLux with an exposure length of 5 seconds.
# On the % scale 0 is the no-effect control and ±100 the full control effect.
row,SMILES,"activity change, negative = inhibition"
1,O=C(NCC1(N2CCCCC2)CCCCC1)c1cc(F)c(F)cc1Cl,inactive: 8.25%
2,C=CCN1CCN(CCOC(=O)C(O)(c2ccccc2)c2ccccc2)CC1,inactive: 12%
3,O=C(NCC1(N2CCCCC2)CCCCC1)c1cccc(Br)c1,inactive: -6.35%
4,CCN1CCCC(OC(=O)C2(O)c3ccccc3C=Cc3ccccc32)C1 (stereo not given),inactive: 0.386%
5,Cc1cc(C(=O)NCC2(N3CCCCC3)CCCCC2)ccc1[N+](=O)[O-],inactive: 6.29%
6,COc1ccc(C(=O)NCC2(N(C)C)CCCCC2)cc1,inactive: 6.89%
7,CN(C)c1ccc(C(=O)NCC2(N(C)C)CCCCC2)cc1,inactive: -4.41%
8,CN(C)C1CCCC1OC(=O)C(O)(c1ccccc1)c1ccccc1 (stereo not given),inactive: 7.48%
9,Cc1ccccc1C(=O)NCC1(N2CCCCC2)CCCCC1,inactive: 7.38%
10,CC(C)N1C(=O)CC2(CCN(CCOC(=O)C(O)(c3ccccc3)c3ccccc3)CC2)C1=O,inactive: -2.31%
11,COc1cc(SC)ccc1C(=O)NCC1(N(C)C)CCCCC1,inactive: 13.6%
12,CCN(CC)CC(C)C(C)OC(=O)C(O)(c1ccccc1)c1ccccc1 (stereo not given),inactive: -0.0686%
13,Cc1ccc(C(=O)NCC2(N3CCCCC3)CCCCC2)cc1,inactive: -0.16%
14,O=C(NCC1(N2CCCCC2)CCCCC1)c1cc([N+](=O)[O-])ccc1Cl,inactive: -3.29%
15,CN1[C@@H]2CC[C@H]1CC(OC(=O)C(O)(c1ccccc1)c1ccccc1)C2 (stereo not given in full),inactive: 1.53%
16,COc1ccc(Br)c(C(=O)NCC2(N3CCCCC3)CCCCC2)c1,inactive: 10.7%
17,CN(C)c1cccc(C(=O)NCC2(N(C)C)CCCCC2)c1,inactive: -0.753%
18,O=C(OCCN1CCCC1)C(O)(c1ccccc1)c1ccccc1,inactive: -2.09%
19,CC(C)Oc1ccc(C(=O)NCC2(N(C)C)CCCCC2)cc1,inactive: -0.724%
20,O=C(OC1CN2CCC1CC2)C(CO)(c1ccccc1)c1ccccc1 (stereo not given),inactive: -0.669%
21,COc1ccc(Cl)cc1C(=O)NCC1(N(C)C)CCCCC1,inactive: 0.126%
22,COc1cccc(C(=O)NCC2(N3CCCCC3)CCCCC2)c1,inactive: 1.47%
23,O=C(NCC1(N2CCCCC2)CCCCC1)c1cccc(Cl)c1,inactive: 3.73%
24,CN(C)C1(CNC(=O)c2ccc(Br)cc2)CCCCC1,inactive: -1.86%
25,COc1cc(C(=O)NCC2(N(C)C)CCCCC2)c([N+](=O)[O-])cc1OC,inactive: 3.18%
